Activation data for 2 molecules are collected here from PubChem BioAssay AID652126 (The Scripps Research Institute Molecular Screening Center, 2013).

The entries are a selection whose mix differs from that of the whole data set. Calls of active or inactive are those of the source.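 Rule for the calls: active = activation above the mean over all tested compounds plus 3 SD (cut at about 0.9% in these data); inactive = the rest.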

This experiment relates to Nuclear hormone receptor DAF-12 (Strongyloides stercoralis). Description: S. stercoralis DAF-12 nuclear receptor activators, primary screen, cell-based, luminescence, HEK293, GRIP1 co-expression, lit1-tk-luc (AID 652126).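 Note: 0% = DMSO-only wells and 100% = 3 µM delta7-dafachronic acid wells.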 The conditions noted are these: HEK293 ssDAF-12/GRIP1 lit1-tk-luc reporter, at 6.8 µM, hits give high values, % of 3 µM dafachronic acid response.
In the case of `CCC(=O)N(c1ccccc1)C1(COC)CCN(CCc2cccs2)CC1`, the activation is inactive: -1.12%. Take `CCC(=O)N(c1ccccc1)C1(COC)CCN(CCn2nnn(CC)c2=O)CC1`: the activation was inactive: -0.92%.
